Laboratory results reported in patent US8658646B2, “Pyrrolopyrazine kinase inhibitors” (Hoffmann-LaRoche Inc., priority 2011, dated 2014).

Sequences of proteins named here, by UniProt entry; tags and fusion partners are left off. Residues count along the entry.
UniProt P52333, 822-1111 limits assumed: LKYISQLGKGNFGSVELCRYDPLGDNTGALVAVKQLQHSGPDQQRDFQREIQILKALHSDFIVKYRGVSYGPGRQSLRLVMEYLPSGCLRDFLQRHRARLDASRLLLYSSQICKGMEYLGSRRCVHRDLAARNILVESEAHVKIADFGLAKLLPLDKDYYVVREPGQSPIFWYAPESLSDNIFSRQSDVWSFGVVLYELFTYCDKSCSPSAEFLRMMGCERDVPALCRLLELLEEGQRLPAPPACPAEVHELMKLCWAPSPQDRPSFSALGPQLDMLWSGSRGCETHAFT

Target: T1, JAK3: Recombinant human kinase domain (Homo sapiens, UniProt P52333)
T1 construct: JAK3: Recombinant human kinase domain from Millipore (Cat #14-629) or prepared; purchased Millipore 14-629
Assay: Determination of IC50 of Janus Kinase (JAK) inhibition, radioactive end-point 33P-ATP assay, JAK3
Assay type: biochemical
Settings: ATP 1.5 uM, peptide 50 uM, 20 minutes, read-out: JAK3-INHIB-DR/v1~NO ADDITIVE~Enzyme_Conc = 100

SMILES | IC50
C[C@@H](NC(=O)c1c[nH]c2ncc(-c3nn(C)c4cc(Cl)ccc34)nc12)C(=O)N1CC(C#N)C1 [Example I-4, 2-(6-Chloro-1-methyl-1H-indazol-3-yl)-5H-pyrrolo[2,3-b]pyrazine-7-carboxylic acid [(R)-2-(3-cyano-azetidin-1-yl)-1-methyl-2-oxo-ethyl]-amide] | 1.05 nM
C[C@@H](NC(=O)c1c[nH]c2ncc(-c3nn(C)c4ccc(Cl)cc34)nc12)C(=O)N1CC(C#N)C1 [Example I-5, 2-(5-Chloro-1-methyl-1H-indazol-3-yl)-5H-pyrrolo[2,3-b]pyrazine-7-carboxylic acid [(R)-2-(3-cyano-azetidin-1-yl)-1-methyl-2-oxo-ethyl]-amide] | 3 nM
C[C@@H](NC(=O)c1c[nH]c2ncc(-c3nn(C)c4cc(F)ccc34)nc12)C(=O)N1CC(C#N)C1 [Example I-83, 2-(6-Fluoro-1-methyl-1H-indazol-3-yl)-5H-pyrrolo[2,3-b]pyrazine-7-carboxylic acid [(R)-2-(3-cyano-azetidin-1-yl)-1-methyl-2-oxo-ethyl]-amide] | 0.635 nM
C[C@@H](NC(=O)c1c[nH]c2ncc(-c3nn(C)c4cc(C(C)(C)C)ccc34)nc12)C(=O)N1CC(C#N)C1 [Example I-81, 2-(6-tert-Butyl-1-methyl-1H-indazol-3-yl)-5H-pyrrolo[2,3-b]pyrazine-7-carboxylic acid [(R)-2-(3-cyano-azetidin-1-yl)-1-methyl-2-oxo-ethyl]-amide] | 10 nM
C[C@@H](NC(=O)c1c[nH]c2ncc(-c3nn(C)c4cc(C#N)ccc34)nc12)C(=O)N1CC(C#N)C1 [Example I-22, 2-(6-Cyano-1-methyl-1H-indazol-3-yl)-5H-pyrrolo[2,3-b]pyrazine-7-carboxylic acid [(R)-2-(3-cyano-azetidin-1-yl)-1-methyl-2-oxo-ethyl]-amide] | 0.725 nM
